Experimental data published in ChEMBL document CHEMBL5634096, “Design, synthesis and bioevaluation of PI3Kα-selective inhibitors as potential colorectal cancer drugs” (Eur J Med Chem, 2023).

What was measured:
[1] = Selectivity index, ratio of IC50 for PI3Kdelta (unknown origin) to the IC50 for PI3Kalpha (unknown origin)
[2] = Selectivity index, ratio of IC50 for PI3Kgamma (unknown origin) to the IC50 for PI3Kalpha (unknown origin)
[3] = Selectivity index, ratio of IC50 for PI3Kbeta (unknown origin) to the IC50 for PI3Kalpha (unknown origin)
[4] = Selectivity index, ratio of IC50 for mTOR (unknown origin) to the IC50 for PI3Kalpha (unknown origin)

Row | Ratio IC50 [1] | Ratio IC50 [2] | Ratio IC50 [3] | Ratio IC50 [4] | Structure (SMILES)
1 | 25 | 50.7 | 178 |  | C[C@H](NC(=O)c1cnc2ccc(-c3ccc4oc(N)nc4c3)cn12)C(N)=O
2 | 44.4 | 80.2 | 180 | 240 | Nc1nc2cc(-c3ccc4ncc(N5C[C@@H]6OCCO[C@@H]6C5)nc4c3)ccc2o1
